A short description of this data set: Serum stability test. The format is in vitro ADME, human.

Bounds are passed on as bounds.

On to `CC[C@H](C)[C@H](NC(=O)[C@H](CCCCN)NC(=O)[C@@H](NC(=O)[C@H](CCC(N)=O)NC(=O)[C@@H](N)CCCNC(=N)N)[C@@H](C)CC)C(=O)N[C@@H](Cc1c[nH]c2ccccc12)C(=O)N[C@@H](Cc1ccccc1)C(=O)N[C@@H](CCC(N)=O)C(=O)N[C@@H](CC(N)=O)C(=O)N[C@@H](CCCNC(=N)N)C(=O)N[C@@H](CCCNC(=N)N)C(=O)N[C@@H](CCSC)C(=O)N[C@@H](CCCCN)C(=O)N[C@@H](Cc1c[nH]c2ccccc12)C(=O)N[C@@H](CCCCN)C(=O)N[C@@H](CCCCN)C(=O)O` [Antp], for which the “state of peptide after 2 h in serum” value (25% human serum, 37 °C, 5 µM, reversed-phase HPLC) was “completely digested”. Further, the half-life (human, 25% human serum (supernatant after centrifugation)) is less than 20 min.

(Values after article PMC4075989 (Biochemistry, 2014).)
